Reference: patent US20080220446A1, “Method for Detecting and/or Removing Protein and/or Peptide Comprising a Cross-Beta Structure From an Aqueous Solution Comprising a Protein” (priority 2005, published 2008)

Protein sequences, listed by entry. Tags and fused reporters are not part of them. Residues count along the entry.
UniProt P00750, 36-562: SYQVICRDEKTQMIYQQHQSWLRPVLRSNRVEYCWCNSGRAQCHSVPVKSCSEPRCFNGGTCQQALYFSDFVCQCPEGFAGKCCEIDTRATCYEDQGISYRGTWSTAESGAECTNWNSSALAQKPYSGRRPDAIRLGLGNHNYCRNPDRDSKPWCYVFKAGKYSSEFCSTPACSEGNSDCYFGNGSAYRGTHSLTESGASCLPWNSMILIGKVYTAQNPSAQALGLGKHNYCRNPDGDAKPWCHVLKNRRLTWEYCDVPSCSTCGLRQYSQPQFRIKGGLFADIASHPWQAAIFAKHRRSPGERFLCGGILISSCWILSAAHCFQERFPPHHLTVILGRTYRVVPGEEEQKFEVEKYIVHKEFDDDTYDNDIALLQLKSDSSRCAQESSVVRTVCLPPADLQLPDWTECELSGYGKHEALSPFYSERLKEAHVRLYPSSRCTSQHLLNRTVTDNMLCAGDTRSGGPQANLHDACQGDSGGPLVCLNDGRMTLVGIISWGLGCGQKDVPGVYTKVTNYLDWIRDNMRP

Legend:
[1] = Congo red fluorescence of protein solutions; assay type: physicochemical; settings: stored at the recommended storage temperature of 4° C.
Experimental: Solutions of 25 μg ml^−1 protein/peptide were incubated with 25 μM Congo red in PBS and fluorescence was measured at 590 nm upon excitation at 550 nm. Background signals from buffer, buffer with Congo red and protein/peptide solution without Congo red were subtracted from corresponding measurements with protein solution incubated with Congo red. Fluorescence was measured in triplicate on a Hitachi F-4500 fluorescence spectrophotometer (Ltd., Tokyo, Japan).
Formulated protein therapeutics were obtained from the local hospital pharmacy and were used as supplied by the manufacturers. […] Lyophilized therapeutics were dissolved according to the manufacturers recommendations. […] Enhancement in fluorescence of ThT and Congo red was measured with all formulated protein therapeutics. […] In addition, tPA binding to the protein therapeutics was analyzed by ELISA and activation of tPA was tested using the Plg-activation assay. […] Binding of tPA was assessed with monoclonal antibody 374b that binds to the protease domain of both tPA and K2P-tPA (American Diagnostica, Tebu-Bio, The Netherlands), peroxidase-conjugated rabbit anti-mouse immunoglobulins (RAMPO, P0260, DAKOCytomation, Glostrup, Denmark), and stained with 3′3′5′5′-tetramethylbezidine (TMB, catalogue number 4501103, buffer, catalogue number 4501401, Biosource Int., Camarillo, Calif., USA).

[2] = ThT fluorescence enhancement by biopharmaceuticals; assay type: physicochemical; settings: +/− SD; five μL of protein therapeutic
Experimental: Fluorescence of ThT—protein/peptide adducts was measured as follows. […] Fluorescence was measured at 485 nm upon excitation at 435 nm. Background signals from buffer, buffer with ThT and protein/peptide solution without ThT were subtracted from corresponding measurements with protein solution incubated with ThT. Regularly, fluorescence of Aβ was used as a positive control, and fluorescence of FP10, a non-amyloid fibrin fragment^16, was used as a negative control. Fluorescence was measured in triplicate on a Hitachi F-4500 fluorescence spectrophotometer (Ltd., Tokyo, Japan).
β2-GPI was reduced and alkylated as follows. Sixhundredforty μl of β2-GPI stock was mixed with 640 μl of 8 M Urea (cooled solution) in 0.1 M Tris pH-8.2. […]
(§1) Protein therapeutics were obtained from the local hospital pharmacy and analyzed within the expiry limits as stated by the manufacturers.
Fluorescence of Thioflavin T (ThT; Sigma T-3516, St. Louis, Mo., USA) and Congo red (CR; Aldrich Chemical Company Inc., Milwaukee, Wis., USA) was measured on a Hitachi F-4500 spectrophotometer at an excitation wavelength of 435 nm and emission wavelength of 485 nm for ThT and an excitation wavelength of 550 nm and emission wavelength of 595 nm for Congo red. […] Fluorescence was measured in triplicate. Background fluorescence of both protein in buffer and dye-solution were subtracted from the total fluorescence signal. […]

[3] = Congo red fluorescence enhancement by biopharmaceuticals; assay type: physicochemical; settings: +/− SD; five μL of protein therapeutic
Experimental: Background signals from buffer, buffer with Congo red and protein/peptide solution without Congo red were subtracted from corresponding measurements with protein solution incubated with Congo red. Fluorescence was measured in triplicate on a Hitachi F-4500 fluorescence spectrophotometer (Ltd., Tokyo, Japan).
as §1
Fluorescence of Thioflavin T (ThT; Sigma T-3516, St. Louis, Mo., USA) and Congo red (CR; Aldrich Chemical Company Inc., Milwaukee, Wis., USA) was measured on a Hitachi F-4500 spectrophotometer at an excitation wavelength of 435 nm and emission wavelength of 485 nm for ThT and an excitation wavelength of 550 nm and emission wavelength of 595 nm for Congo red. […] Fluorescence was measured in triplicate. Background fluorescence of both protein in buffer and dye-solution were subtracted from the total fluorescence signal. Five μg/mL fibrillar amyloid-β(1-40) E22Q (Peptide Synthesis Facility of the Dutch Cancer Institute NKI, Amsterdam, The Netherlands) was used as a positive control in all fluorescence assays.

[4] = Thioflavin T fluorescence of protein solutions; assay type: physicochemical
Experimental: Fluorescence of ThT—protein/peptide adducts was measured as follows. Solutions of 25 μg ml^−1 of protein or peptide preparations were prepared in 50 mM glycine buffer pH 9.0 with 25 μM ThT. Fluorescence was measured at 485 nm upon excitation at 435 nm. Background signals from buffer, buffer with ThT and protein/peptide solution without ThT were subtracted from corresponding measurements with protein solution incubated with ThT. Regularly, fluorescence of Aβ was used as a positive control, and fluorescence of FP10, a non-amyloid fibrin fragment^16, was used as a negative control. Fluorescence was measured in triplicate on a Hitachi F-4500 fluorescence spectrophotometer (Ltd., Tokyo, Japan).
Formulated protein therapeutics were obtained from the local hospital pharmacy and were used as supplied by the manufacturers. […] Lyophilized therapeutics were dissolved according to the manufacturers recommendations. GH, zinc-insulin, Cealb and gelatin were stored at −20, 4, room temperature, 37 and 65° C. Other protein therapeutics were only kept at 4° C., and assayed for the presence of cross-β structure at shown time points. Enhancement in fluorescence of ThT and Congo red was measured with all formulated protein therapeutics. For this purpose, proteins were diluted to the indicated concentrations. In addition, tPA binding to the protein therapeutics was analyzed by ELISA and activation of tPA was tested using the Plg-activation assay. Zinc-insulin was diluted tenfold in the activation assay, GH was diluted to a final concentration of 500 μg ml^−1. Activation of factor XII and prekallikrein by the therapeutics was tested in the chromogenic factor XII assay (see above). For tPA ELISAs, 5 μg ml^−1 of the protein therapeutics were coated onto Greiner high-binding Microlon plates (#655092, Greiner Bio-One, Alphen a/d Rijn, The Netherlands). After coating, plates were blocked with Blocking Reagent (Roche Diagnostics, Almere, The Netherlands). A concentration series of tPA or K2P-tPA in PBS with 0.1% v/v Tween-20 and 10 mM ε-amino caproic acid was applied and the plates were incubated for 1 h at room temperature with constant swirling. Binding of tPA was assessed with monoclonal antibody 374b that binds to the protease domain of both tPA and K2P-tPA (American Diagnostica, Tebu-Bio, The Netherlands), peroxidase-conjugated rabbit anti-mouse immunoglobulins (RAMPO, P0260, DAKOCytomation, Glostrup, Denmark), and stained with 3′3′5′5′-tetramethylbezidine (TMB, catalogue number 4501103, buffer, catalogue number 4501401, Biosource Int., Camarillo, Calif., USA).
ThT fluorescence of β2GPI was measured as follows. […] CL vesicles were prepared according to an established procedure. Briefly, CL was dried under a stream of nitrogen. […] In the ThT fluorescence assay, fluorescence of β2GPI in buffer, of CL or DXS500k in buffer, of buffer and ThT alone, and of β2GPI-CL adducts and β2GPI-DXS500k adducts, with or without ThT, was recorded as described above (section ThT fluorescence). In addition, TEM images were recorded with CL, β2GPI from human plasma, with or without CL, and with recombinant β2GPI, as described^5.
To prepare structurally altered ovalbumin (OVA) with amyloid cross-β structures, purified OVA (Sigma, A-7641, lot 071k7094) was heated to 85° C. […] Native OVA (nOVA) and heat-denatured OVA (dOVA) were tested in the ThT fluorescence assay and in the Plg-activation assay. In the fluorescence assay and in the Plg-activation assay, 25 and 100 μg ml^−1 nOVA and dOVA were tested, respectively. […]

tPA = tPA (Homo sapiens, UniProt P00750); assay: Plasminogen-activation assay (tPA activation, S-2251); assay type: biochemical; settings: Example 4; native, heat-denatured or alkylated preparation as labelled
Experimental: Plasmin (Pls) activity was assayed as described^16. Peptides and proteins that were tested for their stimulatory ability were regularly used at 100 μg ml^−1. The tPA and plasminogen (Plg) concentrations were 200 μM and 1.1 μM, respectively, unless stated differently. Chromogenic substrate S-2251 (Chromogenix, Instrumentation Laboratory SpA, Milano, Italy) was used to measure Pls activity. Conversion of zymogen factor XII (#233490, Calbiochem, EMD Biosciences, Inc., San Diego, Calif.) to proteolytically active factor XII (factor XIIa) was assayed by measurement of the conversion of chromogenic substrate Chromozym-PK (Roche Diagnostics, Almere, The Netherlands) by kallikrein. Chromozym-PK was used at a concentration of 0.3 mM. […] The conversion of Chromozym-PK was recorded kinetically at 37° C. for at least 60 minutes. […] In control wells factor XII was omitted from the assay solutions and no conversion of Chromozym-PK was detected. […]
Formulated protein therapeutics were obtained from the local hospital pharmacy and were used as supplied by the manufacturers. […] Enhancement in fluorescence of ThT and Congo red was measured with all formulated protein therapeutics. […] In addition, tPA binding to the protein therapeutics was analyzed by ELISA and activation of tPA was tested using the Plg-activation assay. […]

[5] = Example 4, native, heat-denatured or alkylated preparation as labelled

## Albumin: human albumin, plasma purified drug product (Cealb, Sanquin-CLB)
[1]
  enhancement of Congo red fluorescence: enhanced the fluorescence of Congo red
[2]
  Fluorescence ThT: 1970 +/− 5 a.u.
[3]
  Fluorescence CR: 978 +/− 2 a.u.
[4]; stored at 4° C.
  enhancement of ThT fluorescence: enhance fluorescence of ThT

## alkylated MSA: reduced-alkylated murine serum albumin [reference compound]
[4]; [5]
  enhancement of ThT fluorescence: enhance ThT fluorescence to a similar extent
[4]; conclusion from ThT fluorescence, Plg-activation assay and TEM
  presence of cross-β structure conformation: comprise the cross-β structure conformation

## heat-denatured MSA: murine serum albumin heat denatured at 85° C. [reference compound]
[4]; [5]
  enhancement of ThT fluorescence: enhance ThT fluorescence to a similar extent

## native MSA: murine serum albumin [reference compound]
[4]; [5]
  enhancement of ThT fluorescence: enhanced ThT fluorescence to some extent
tPA
  tPA activating potential: not reflected by stimulation of tPA activation
